Experimental data from PMC9697976, “Giardia lamblia G6PD::6PGL Fused Protein Inhibitors Decrease Trophozoite Viability: A New Alternative against Giardiasis” (International Journal of Molecular Sciences, 2022).

Sequences of proteins named here, by UniProt entry; tags and fusion partners are left off.
UniProt A8BWM5, entry or part of it: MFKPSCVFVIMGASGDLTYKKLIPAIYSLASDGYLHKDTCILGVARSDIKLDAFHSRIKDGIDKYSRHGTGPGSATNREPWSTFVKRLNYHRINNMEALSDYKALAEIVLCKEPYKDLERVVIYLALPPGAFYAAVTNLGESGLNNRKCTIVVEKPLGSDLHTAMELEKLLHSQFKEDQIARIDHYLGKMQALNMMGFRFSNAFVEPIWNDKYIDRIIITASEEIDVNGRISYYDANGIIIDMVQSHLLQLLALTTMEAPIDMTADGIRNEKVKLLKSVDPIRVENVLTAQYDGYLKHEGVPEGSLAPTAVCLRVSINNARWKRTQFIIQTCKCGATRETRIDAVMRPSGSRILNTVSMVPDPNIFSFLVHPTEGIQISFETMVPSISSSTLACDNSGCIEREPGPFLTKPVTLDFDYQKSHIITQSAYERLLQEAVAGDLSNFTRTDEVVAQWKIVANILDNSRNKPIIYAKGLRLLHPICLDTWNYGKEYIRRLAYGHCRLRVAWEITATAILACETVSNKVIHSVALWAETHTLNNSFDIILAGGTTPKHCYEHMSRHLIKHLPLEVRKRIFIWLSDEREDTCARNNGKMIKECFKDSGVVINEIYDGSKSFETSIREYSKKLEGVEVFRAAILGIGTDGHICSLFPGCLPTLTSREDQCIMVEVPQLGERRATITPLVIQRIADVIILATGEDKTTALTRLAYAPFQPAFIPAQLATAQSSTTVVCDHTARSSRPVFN

Target: G6PD::6PGL fused enzyme (Giardia intestinalis, UniProt A8BWM5)
Assay: Second-order inactivation constant (k2) of G6PD::6PGL
Format: biochemical, Giardia lamblia
Conditions: read-out: Second-order inactivation constant (k2), 0.2 mg/mL enzyme, 37 °C, 0–120 min
Procedure: Figure 4 Inactivation of GlG6PD::6PGL by CNZ-7, CNZ-8, CMC-1, and FLP-2 chemical compounds. G6PD::6PGL enzyme was adjusted to 0.2 mg/mL and was incubated with different concentrations of (A) CNZ-7, (C) CNZ-8, (E) CMC-1, and (G) FLP-2 at 37 °C. At the indicated times, aliquots were withdrawn from the samples and assayed for residual activity. Initial velocity was fitted to determine each compound’s pseudo-first-order inactivation constants (k1). The second-order rate constant values of inactivation (k2) of each of the compounds (B) CNZ-7, (D) CNZ-8, (F) CMC-1, and (H) FLP-2 were obtained by fitting the calculated k1 value versus the concentration of the corresponding compound and adjusting to a linear regression model. All experiments were performed in triplicate. […] TEXT PRINTED IN THE PICTURE: (E) CNZ-7: k2 = 0.97 M^−1 × s^−1 | (F) CNZ-8: k2 = 0.60 (M^−1 × s^−1) | (G) CMC-1: k2 = 1.88 M^−1 × s^−1) | (H) FLP-2: k2 = 0.82 M^−1 × s^−1)
Inactivation assays were performed to determine the rate of each to form the enzyme–inhibitor complex. […] After the incubation period, enzyme activity was measured spectrophotometrically following the reduction of NADP^+ at 340 nm for each experimental condition. […]

SMILES: O=C1NC(=O)C(=Cc2ccc(OCc3ccccc3)cc2)C(=O)N1 [CMC-1]
- kinact/KI: 1.88 M⁻¹ s⁻¹
